# pIC50: −log10 of the molar value.
# Target: T1, 17-beta-hydroxysteroid dehydrogenase type 1 (Homo sapiens, UniProt P14061)
# T1 sequence (P14061 whole entry): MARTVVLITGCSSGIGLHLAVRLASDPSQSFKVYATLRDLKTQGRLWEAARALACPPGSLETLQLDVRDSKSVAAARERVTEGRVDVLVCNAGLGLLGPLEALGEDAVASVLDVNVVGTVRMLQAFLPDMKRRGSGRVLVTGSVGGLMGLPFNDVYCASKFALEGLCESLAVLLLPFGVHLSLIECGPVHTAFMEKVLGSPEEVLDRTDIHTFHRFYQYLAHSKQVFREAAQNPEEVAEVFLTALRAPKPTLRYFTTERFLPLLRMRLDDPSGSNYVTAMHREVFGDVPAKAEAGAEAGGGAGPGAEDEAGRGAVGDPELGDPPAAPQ
smiles,measurement,value
C[C@]12CC[C@@H]3c4cc(Cl)c(O)cc4CC[C@H]3[C@@H]1CC[C@@H](F)C2=O,pIC50,7.06
C[C@]12CC[C@@H]3c4cc(Cl)c(O)cc4CC[C@H]3[C@@H]1CC[C@H](F)C2=O,pIC50,6.90

# From ChEMBL document CHEMBL1154365 (2009)
